## AlphaSeq binding of Ab-14 heavy chain variants to a spike HR2 peptide

Binding partner: SARS-CoV-2 spike HR2 peptide, sequence PDVDLGDISGINAS.

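Library AAYL49 holds single substitutions and randomly drawn double and triple substitutions in the CDRs. The scFvs were displayed on barcoded MATa yeast, the peptide on MATalpha yeast. The frequency of each diploid, read from paired DNA barcodes, reflects how well the two displayed proteins bind. Each replicate has its own calibration line, from reference interactions of the BCL2 family. Each pool was mated in three replicate cultures.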

Parent: Ab-14, a human scFv built as VH, three GGGGS repeats, VL. Only the CDRs of the heavy chain vary.
VH: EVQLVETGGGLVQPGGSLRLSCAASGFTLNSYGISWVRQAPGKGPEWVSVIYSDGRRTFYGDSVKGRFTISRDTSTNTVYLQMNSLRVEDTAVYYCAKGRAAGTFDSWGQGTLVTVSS
VL: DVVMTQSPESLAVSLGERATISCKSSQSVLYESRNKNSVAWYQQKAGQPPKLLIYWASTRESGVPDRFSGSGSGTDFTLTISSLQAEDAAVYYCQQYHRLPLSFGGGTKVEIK

Changes read parent residue, position, new residue, counted from the first residue of the VH shown. Numbers give log10(Kd / nM), so 0 is 1 nM and 3 is 1 µM. Smaller is tighter. The mean shown is taken over the replicates in which the pair was detected. "nd" marks a missing value. The strain was present, yet no cells mated with the target were sequenced in any replicate, which points to weak or no binding. Entries are sorted by rising average, undetected variants last. Three control strains display no target. For library AAYL49, 15% of the pairings with them gave a signal, with a median of 4.06 and one signal in twenty below 2.83, so weak values seen in few replicates may be background.

R100I A101G: 0.97 (3 of 3 replicates).
G26A Y52F A101L: 1.26 (1 of 3 replicates).
I34V K65W G99T: 1.92 (3 of 3 replicates).
R56T S63W: 2.24 (3 of 3 replicates).
S35R R56V A102K: 2.29 (1 of 3 replicates).
F59E G99T R100C: 2.36 (3 of 3 replicates).
I51D G61Q S107R: 2.46 (3 of 3 replicates).
D54Q G55N A101P: 2.50 (1 of 3 replicates).
T28M I34L: 2.79 (3 of 3 replicates).
S31A Y32W S107F: 2.89 (2 of 3 replicates).
T58N G103S F105I: 3.10 (2 of 3 replicates).
G26R F59P: 3.34 (1 of 3 replicates).
Y60K A102V S107F: 3.37 (2 of 3 replicates).
L29W Y52L D54P: 3.48 (1 of 3 replicates).
F27L T28A T58E: 3.49 (2 of 3 replicates).
G99K S107V: 3.49 (2 of 3 replicates).
Y60E D62L V64W: 3.65 (1 of 3 replicates).
G55S T58Q D106M: 3.67 (2 of 3 replicates).
S35K V50Q: 3.76 (1 of 3 replicates).
S35A R57I F59D: 3.84 (2 of 3 replicates).
I51Q G55L S63R: 3.88 (2 of 3 replicates).
T28P Y52Q R100W: 4.17 (3 of 3 replicates).
F59P V64R F105E: 4.18 (1 of 3 replicates).
L29T G61E G99C: 4.43 (2 of 3 replicates).
G26V F59S D62I: 4.55 (2 of 3 replicates).
I34G V50W S53D: 4.93 (2 of 3 replicates).
F59A F105L D106E: 5.84 (1 of 3 replicates).
Y32R G55F R100L: nd (0 of 3 replicates).
S35D Y52N S107G: nd (0 of 3 replicates).
V50P G55A A102L: nd (0 of 3 replicates).
I51T R56C R100V: nd (0 of 3 replicates).
Y60D G99S F105M: nd (0 of 3 replicates).
F27E D62L A101F: nd (0 of 3 replicates).
G26E V50M V64K: nd (0 of 3 replicates).
G55L D62Q: nd (0 of 3 replicates).
G61I G99H A101T: nd (0 of 3 replicates).
I51C R56M T58I: nd (0 of 3 replicates).
Y32S S107I: nd (0 of 3 replicates).

The 4 strongest on average among those seen in every replicate, once more:

changes	mean log10 Kd (nM)	replicates with signal
R100I A101G	0.97	3/3
I34V K65W G99T	1.92	3/3
R56T S63W	2.24	3/3
F59E G99T R100C	2.36	3/3

From the AlphaSeq antibody data of Engelhart et al. 2022 (doi:10.1038/s41597-022-01779-4), copy in the FLAb collection.